From patent US20170335301A1

How the values were obtained:
[1] = target: cation-independent mannose-6-phosphate receptor (CIMPR); experiment: CIMPR affinity chromatography of different production batches
[2] = target: cation-independent mannose-6-phosphate receptor (CIMPR); experiment: M6P receptor (CIMPR) plate binding assay
[3] = target: cation-independent mannose-6-phosphate receptor (CIMPR); experiment: CIMPR affinity chromatography, M6P gradient elution, fractions by GAA activity

CIMPR receptor binding (%) [1] | Kd [2] | % of rhGAA bound to CIMPR column (eluted with M6P) [3] | % of rhGAA that did not bind to the CIMPR [3] | Substance
70% | 2 to 4 nM |  |  | ATB200 rhGAA (recombinant human acid α-glucosidase produced in CHO cell line GA-ATB-200) (from UniProt P10253 70-952) (enzyme)
 |  | 22% | 78% | Lumizyme® (alglucosidase alfa, conventional rhGAA) (from UniProt P10253 57-952) (enzyme)
 |  | 27% | 73% | Myozyme® (alglucosidase alfa, conventional rhGAA) (from UniProt P10253 57-952) (enzyme)
